Data as given in US20070066574A1, “MYO-INOSITOL HEXAPHOSPHATE FOR TOPICAL USE” (priority 2003, published 2007).

Experiment: Plasmatic and urinary phytate after topical administration (absorption by the skin)
Conditions: administered topically, passing into the bloodstream

absorption by the skin on topical administration: can be absorbed by the skin
Structure (SMILES): O=P(O)(O)O[C@H]1[C@H](OP(=O)(O)O)[C@@H](OP(=O)(O)O)[C@H](OP(=O)(O)O)[C@@H](OP(=O)(O)O)[C@H]1OP(=O)(O)O [phytate, myo-inositol hexaphosphate]
